Source: PubChem BioAssay AID1135 (Sanford-Burnham Center for Chemical Genomics, 2008)
Only a part is listed here, and it is no random draw. Active and inactive are the calls of the source.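 The calls were made as follows: active = over 50% inhibition of tissue-nonspecific alkaline phosphatase at 20 µM in the single-dose screen; inactive = the rest.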

Protein sequences, listed by entry. Tags and fused reporters are not part of them.
UniProt P05186, whole entry: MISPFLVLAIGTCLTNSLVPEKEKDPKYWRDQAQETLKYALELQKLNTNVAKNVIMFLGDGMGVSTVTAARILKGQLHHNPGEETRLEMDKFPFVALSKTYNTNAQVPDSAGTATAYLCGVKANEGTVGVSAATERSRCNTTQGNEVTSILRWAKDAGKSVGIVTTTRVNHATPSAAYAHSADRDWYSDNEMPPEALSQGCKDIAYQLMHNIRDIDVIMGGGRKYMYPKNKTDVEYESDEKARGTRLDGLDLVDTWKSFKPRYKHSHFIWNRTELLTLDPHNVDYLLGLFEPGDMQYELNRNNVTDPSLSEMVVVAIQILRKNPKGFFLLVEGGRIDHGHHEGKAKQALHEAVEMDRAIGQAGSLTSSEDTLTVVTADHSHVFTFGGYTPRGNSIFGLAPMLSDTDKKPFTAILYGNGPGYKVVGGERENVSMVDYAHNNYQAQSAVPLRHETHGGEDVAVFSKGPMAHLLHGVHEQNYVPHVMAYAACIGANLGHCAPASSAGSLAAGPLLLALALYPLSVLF

Each compound was assayed against Alkaline phosphatase, tissue-nonspecific isozyme (Homo sapiens) (UniProt P05186) (assay: blockers of alkaline phosphatase TNAP activity – biochemical, luminescent, high phosphate acceptor level, uHTS, primary screen (AID 1135;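 also: plate controls were DMSO wells for no effect and EDTA-quenched wells as full inhibition for full effect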)). Details: purified TNAP, CDP-star luminescence, 1 M DEA; at 20 µM; hits give high values.
In the case of `Cc1c2c(nc3ccccc13)SC(C(Cl)Cl)C2` (configuration not stated), the inhibition is reported as inactive: -1.6%.
`CP(=O)(Nc1cccc(Br)c1)Oc1ccccc1` (configuration not stated) was tested, and the inhibition was inactive: -3.9%.
